Values of other authors as cited in patent publication US20260356984A1, “DNA-AFFIBODY-DRUG NANOSTRUCTURES FOR INHIBITING TRIPLE NEGATIVE BREAST CANCER GROWTH AND METASTASIS” (ARIZONA BOARD OF REGENTS ON BEHALF OF ARIZONA STATE …, priority 2022, published 2026).

Tested on: TNBC
Conditions: employed as a single agent; cited from earlier work

cetuximab: Anti-HER1 monoclonal antibody
benefit to TNBC patients: neither antibody confers significant benefit to TNBC patients
